Paper PMC3246389 (2011)

Amino acid sequences for entries named in this document (tags omitted). Residues count along the entry.
UniProt P48061, 22-89: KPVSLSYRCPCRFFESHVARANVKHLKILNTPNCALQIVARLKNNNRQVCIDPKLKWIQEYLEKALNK

Target: CXCL12 (SDF-1alpha) (Homo sapiens, UniProt P48061)
Assay: backscattering interferometry

B1: CXCR4 (protein)
chain: MEGISIYTSDNYTEEMGSGDYDSMKEPCFREENANFNKIFLPTIYSIIFLTGIVGNGLVILVMGYQKKLRSMTDKYRLHLSVADLLFVITLPFWAVDAVANWYFGNFLCKAVHVIYTVNLYSSVLILAFISLDRYLAIVHATNSQRPRKLLAEKVVYVGVWIPALLLTIPDFIFANVSEADDRYICDRFYPNDLWVVVFQFQHIMVGLILPGIVILSCYCIIISKLSHSKGHQKRKALKTTVILILAFFACWLPYYIGISIDSFILLEIIKQGCEFENTVHKWISITEALAFFHCCLNPILYAFLGAKFKTSAQHALTSVSRGSSLKILSKGKRGGHSSVSTESESSSFHSS
For B1, the Kd was 0.69 nM.
